The values that follow come from patent publication US9884844B2 (priority 2012, dated 2018).

Sequences of proteins named here, by UniProt entry; tags and fusion partners are left off. A change or cut given only in a name is not applied to a line headed by its entry.
UniProt P41146: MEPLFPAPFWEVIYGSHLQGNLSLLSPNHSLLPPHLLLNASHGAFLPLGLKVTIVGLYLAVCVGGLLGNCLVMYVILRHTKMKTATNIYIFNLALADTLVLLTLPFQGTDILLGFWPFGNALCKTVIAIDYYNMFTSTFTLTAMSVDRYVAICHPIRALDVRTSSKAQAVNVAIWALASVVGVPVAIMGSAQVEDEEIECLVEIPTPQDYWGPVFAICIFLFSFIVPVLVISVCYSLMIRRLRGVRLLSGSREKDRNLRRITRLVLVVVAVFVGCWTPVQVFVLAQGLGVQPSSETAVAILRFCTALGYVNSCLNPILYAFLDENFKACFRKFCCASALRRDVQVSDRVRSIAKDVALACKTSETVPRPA

Structures are written as SMILES.

Usually EC50 stands for the concentration that produces a half-maximal response.

The target in the assay is human NOP (Homo sapiens, UniProt P41146). Put plainly: cAMP assay on cells expressing human NOP (NOP assay). The following applies: read-out: NOP EC50, HEK cells expressing human NOP. In general terms: cAMP levels reflect the balance of adenylyl cyclase and phosphodiesterase activity.
Consider `CNC(=O)C[C@@]1(C)C(=O)N(C2CCN([C@@H]3c4ccccc4CC[C@H]3O)CC2)c2ccccc21`, for which the EC50 was more than 5000 nM. As for `CN1CC2(CC1=O)C(=O)N(C1CCN(C3Cc4cccc5cccc3c45)CC1)c1ccccc12` (stereo not shown), the figure is less than 100 nM; as for `O=C(/C=C1/C(=O)N(C2CCN(C3Cc4cccc5cccc3c45)CC2)c2ccccc21)N1CCCCC1` (stereo not shown), more than 5000 nM; as for `O=C1NCC2(N1)C(=O)N(C1CCN(C3Cc4cccc5cccc3c45)CC1)c1ccccc12` (stereo not shown), less than 100 nM.

Regarding `CNC(=O)CC1(C)C(=O)N(C2CCN(C3(C)CCc4ccccc43)CC2)c2ccccc21` (stereo not shown), the EC50 was less than 100 nM.

For `CNC(=O)C[C@]1(C)C(=O)N(C2CCN([C@@]3(C)CCc4ccccc43)CC2)c2ccccc21`, the EC50 is less than 100 nM.

For the compound `CNC(=O)CCC1(C)C(=O)N(C2CCN(C3Cc4cccc5cccc3c45)CC2)c2ccccc21` (stereo not shown), the EC50 was less than 100 nM.
